Reference: BindingDB's records for PubMed 11160644 (Merck Frosst Centre For Therapeutic Research, 2001)

By UniProt entry, the sequences of proteins in these tests, tags left out.
UniProt P23219, whole entry: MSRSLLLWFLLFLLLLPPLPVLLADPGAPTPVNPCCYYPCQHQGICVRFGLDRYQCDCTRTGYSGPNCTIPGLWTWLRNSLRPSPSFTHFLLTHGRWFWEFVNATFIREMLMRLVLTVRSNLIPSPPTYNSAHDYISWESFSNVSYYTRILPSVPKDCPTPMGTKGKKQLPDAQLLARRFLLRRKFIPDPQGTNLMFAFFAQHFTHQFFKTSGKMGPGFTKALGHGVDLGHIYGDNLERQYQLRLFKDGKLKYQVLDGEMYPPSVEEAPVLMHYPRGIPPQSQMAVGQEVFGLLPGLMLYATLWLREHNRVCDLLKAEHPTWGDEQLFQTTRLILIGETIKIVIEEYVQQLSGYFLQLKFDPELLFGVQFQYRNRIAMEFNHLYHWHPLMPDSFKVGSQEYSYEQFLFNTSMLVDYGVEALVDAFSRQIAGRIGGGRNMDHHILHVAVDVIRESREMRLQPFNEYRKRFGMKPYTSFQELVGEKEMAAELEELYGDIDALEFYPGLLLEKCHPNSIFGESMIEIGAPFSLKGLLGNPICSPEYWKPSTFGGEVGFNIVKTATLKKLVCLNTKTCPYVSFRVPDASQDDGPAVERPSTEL

Target: Prostaglandin G/H synthase 1 (Homo sapiens, UniProt P23219)

In the case of `CN1C(C(=O)Nc2ccccn2)=C(O)c2ccccc2S1(=O)=O` [NSC_4856], the Ki is reported as 760 nM.
